In one assay the target is T1, human PAC1 receptor (Homo sapiens, UniProt P41586).
T1 construct: SHSY-5Y (human neuroblastoma cell line) and RG-2 (rat glioma cell line) cells endogenously express human and rat PAC1 receptors, respectively; endogenous in cells; host or cells: SHSY-5Y human neuroblastoma cells
T1 sequence (P41586 21-468): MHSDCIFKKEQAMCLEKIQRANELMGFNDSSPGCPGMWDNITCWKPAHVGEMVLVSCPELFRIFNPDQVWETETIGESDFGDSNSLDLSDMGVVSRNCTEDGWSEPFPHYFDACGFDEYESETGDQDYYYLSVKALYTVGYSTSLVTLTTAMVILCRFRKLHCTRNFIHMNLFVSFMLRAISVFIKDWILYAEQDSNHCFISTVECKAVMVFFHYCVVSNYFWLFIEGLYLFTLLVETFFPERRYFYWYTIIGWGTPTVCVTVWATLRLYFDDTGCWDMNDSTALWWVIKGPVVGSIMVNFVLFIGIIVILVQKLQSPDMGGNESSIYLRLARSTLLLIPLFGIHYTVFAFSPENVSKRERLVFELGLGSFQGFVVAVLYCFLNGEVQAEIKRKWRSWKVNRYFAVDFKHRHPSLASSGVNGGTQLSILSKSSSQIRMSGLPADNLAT
Nature of the assay: LANCE Ultra cAMP accumulation antagonist assay in SHSY-5Y cells.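 Further: inhibition of cAMP accumulation evoked by PAC1 agonist at its EC80 in SHSY-5Y cells endogenously expressing receptor, 30 min preincubation then 15 min agonist, TR-FRET readout.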 It counts as cell-based. Background: In TR-FRET formats the signal depends on donor and acceptor labels being close together.

Another assay has as its target T2, rat PAC1 receptor (Rattus norvegicus, UniProt P32215).
T2 construct: SHSY-5Y (human neuroblastoma cell line) and RG-2 (rat glioma cell line) cells endogenously express human and rat PAC1 receptors, respectively; endogenous in cells; host or cells: RG-2 rat glioma cells
T2 sequence (P32215 20-523): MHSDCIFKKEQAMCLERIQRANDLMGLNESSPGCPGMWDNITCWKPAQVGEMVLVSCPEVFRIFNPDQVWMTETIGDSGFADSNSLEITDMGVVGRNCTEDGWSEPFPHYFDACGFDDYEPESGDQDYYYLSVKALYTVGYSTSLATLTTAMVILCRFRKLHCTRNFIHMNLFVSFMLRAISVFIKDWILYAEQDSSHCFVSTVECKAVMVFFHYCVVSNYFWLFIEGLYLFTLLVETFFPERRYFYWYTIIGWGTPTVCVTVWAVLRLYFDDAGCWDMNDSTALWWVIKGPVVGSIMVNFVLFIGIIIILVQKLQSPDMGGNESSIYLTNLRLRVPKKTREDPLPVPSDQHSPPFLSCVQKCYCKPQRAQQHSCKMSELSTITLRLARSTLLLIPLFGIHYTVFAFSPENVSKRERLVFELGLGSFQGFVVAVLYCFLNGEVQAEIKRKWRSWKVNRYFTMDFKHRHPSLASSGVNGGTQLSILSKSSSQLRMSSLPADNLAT
Nature of the assay: LANCE Ultra cAMP accumulation antagonist assay in RG-2 cells.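 Further: RG-2 rat glioma cells endogenously expressing PAC1, test peptide preincubated 30 min, then PAC1 agonist added at its EC80 for 15 min, cAMP accumulation read by LANCE Ultra.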 The assay is classed as cell-based.

IC50 data for 6 compounds are collected here from patent US20210395313A1, “PEPTIDE PAC1 ANTAGONISTS” (AMGEN INC., priority 2017, published 2021).

For `CCCC[C@H](NC(=O)[C@@H]1CSSC[C@H](NC(=O)[C@H](CC(=O)O)NC(=O)[C@H](CC(=O)O)NC(=O)[C@@H](NC(=O)[C@H](C)NC(=O)[C@H](CCCCN)NC(=O)[C@H](CCCNC(=N)N)NC(=O)[C@H](Cc2ccccc2)NC(=O)[C@H](CCC(N)=O)NC(=O)[C@@H]2CSSC[C@H](N)C(=O)N[C@@H](CC(=O)O)C(=O)N[C@@H](C)C(=O)N[C@@H]([C@@H](C)O)C(=O)N2)[C@@H](C)CC)C(=O)N[C@@H](CC(=O)O)C(=O)N[C@@H](CCCCN)C(=O)N[C@@H](CCC(N)=O)C(=O)N[C@@H](C)C(=O)N[C@@H](Cc2c[nH]cn2)C(=O)N[C@@H](Cc2c[nH]cn2)C(=O)N[C@@H](CO)C(=O)N[C@@H](CC(N)=O)C(=O)N[C@@H](C(C)C)C(=O)N2CCC[C@H]2C(=O)NCC(=O)N[C@@H](CO)C(=O)N[C@@H](C(C)C)C(=O)N[C@@H](Cc2ccccc2)C(=O)N[C@@H](CCCCN)C(=O)NC(C)(C)C(=O)N1)C(=O)N[C@@H](CCCCN)C(=O)N[C@@H](CCC(N)=O)C(=O)N[C@@H](CCCCN)C(=O)N[C@@H](CCCCN)C(=O)N[C@@H](CCCCN)C(=O)N[C@@H](CCC(=O)O)C(=O)N[C@@H](Cc1ccccc1)C(=O)N[C@@H](CCCCN)C(N)=O` [compound 259], the concentration for half-maximal inhibition (IC50) on human PAC1 receptor lay in the range of 1 to 100 nM; against rat PAC1 receptor, 0.01 to 1 nM.
On the same counts, the results for `CC[C@H](C)[C@H](NC(=O)[C@H](C)NC(=O)[C@H](CCCCN)NC(=O)[C@H](CCCNC(=N)N)NC(=O)[C@H](Cc1ccccc1)NC(=O)[C@H](CCC(N)=O)NC(=O)[C@@H]1CSSC[C@H](N)C(=O)N[C@@H](CC(=O)O)C(=O)N[C@@H](C)C(=O)N[C@@H]([C@@H](C)O)C(=O)N1)C(=O)N[C@@H](CC(=O)O)C(=O)N[C@@H](CC(=O)O)C(=O)N[C@H]1CSSC[C@@H](C(=O)N[C@@H](CCSC)C(=O)N[C@@H](CCCCN)C(=O)N[C@@H](CCC(N)=O)C(=O)N[C@@H](CCCCN)C(=O)N[C@@H](CCCCN)C(=O)N[C@@H](CCCCN)C(=O)N[C@@H](CCC(=O)O)C(=O)N[C@@H](Cc2ccccc2)C(=O)N[C@@H](CCCCN)C(=O)N[C@@H](C)C(=O)NCC(N)=O)NC(=O)C(C)(C)NC(=O)[C@H](CCCCN)NC(=O)[C@H](Cc2ccccc2)NC(=O)[C@H](C(C)C)NC(=O)[C@H](CO)NC(=O)CNC(=O)[C@H](C(C)C)NC(=O)[C@H](CC(N)=O)NC(=O)[C@H](CO)NC(=O)[C@H](Cc2c[nH]cn2)NC(=O)[C@H](Cc2c[nH]cn2)NC(=O)[C@H](C)NC(=O)[C@H](CCC(N)=O)NC(=O)[C@H](CCCCN)NC(=O)[C@H](CCC(N)=O)NC1=O` [compound 262] are 1 to 100 nM and 0.01 to 1 nM.
On the same counts, the results for `CCCC[C@H](NC(=O)[C@@H]1CSSC[C@H](NC(=O)[C@H](CC(=O)O)NC(=O)[C@H](CC(=O)O)NC(=O)[C@@H](NC(=O)[C@H](C)NC(=O)[C@H](CCCCN)NC(=O)[C@H](CCCNC(=N)N)NC(=O)[C@H](Cc2ccccc2)NC(=O)[C@H](CCC(N)=O)NC(=O)[C@@H]2CSSC[C@H](N)C(=O)N[C@@H](CC(=O)O)C(=O)N[C@@H](C)C(=O)N[C@@H]([C@@H](C)O)C(=O)N2)[C@@H](C)CC)C(=O)N[C@@H](CC(=O)O)C(=O)N[C@@H](CCCCN)C(=O)N[C@@H](CCC(N)=O)C(=O)N[C@@H](C)C(=O)N[C@@H](Cc2c[nH]cn2)C(=O)N[C@@H](Cc2c[nH]cn2)C(=O)N[C@@H](CO)C(=O)N[C@@H](CC(N)=O)C(=O)N[C@@H](C(C)C)C(=O)N2CCC[C@H]2C(=O)N[C@@H](CO)C(=O)N[C@@H](C(C)C)C(=O)N[C@@H](Cc2ccccc2)C(=O)N[C@@H](CCCCN)C(=O)NC(C)(C)C(=O)N1)C(=O)N[C@@H](CCCCN)C(=O)N[C@@H](CCC(N)=O)C(=O)N[C@@H](CCCCN)C(=O)N[C@@H](CCCCN)C(=O)N[C@@H](CCCCN)C(=O)N[C@@H](CCC(=O)O)C(=O)N[C@@H](Cc1ccccc1)C(=O)N[C@@H](CCCCN)C(=O)N[C@@H](C)C(=O)NCC(N)=O` [compound 248] are 1 to 100 nM and 0.01 to 1 nM.
The matching figures for `CCCC[C@H](NC(=O)[C@@H]1CSSC[C@H](NC(=O)[C@H](CC(=O)O)NC(=O)[C@H](CC(=O)O)NC(=O)[C@@H](NC(=O)[C@H](C)NC(=O)[C@H](CCCCN)NC(=O)[C@H](CCCNC(=N)N)NC(=O)[C@H](Cc2ccccc2)NC(=O)[C@H](CCC(N)=O)NC(=O)[C@@H]2CSSC[C@H](N)C(=O)N[C@@H](CC(=O)O)C(=O)N[C@@H](C)C(=O)N[C@@H]([C@@H](C)O)C(=O)N2)[C@@H](C)CC)C(=O)N[C@@H](CCC(N)=O)C(=O)N[C@@H](CCCCN)C(=O)N[C@@H](CCC(N)=O)C(=O)N[C@@H](C)C(=O)N[C@@H](Cc2c[nH]cn2)C(=O)N[C@@H](Cc2c[nH]cn2)C(=O)N[C@@H](CO)C(=O)N[C@@H](CC(N)=O)C(=O)N[C@@H](C(C)C)C(=O)N2CCC[C@H]2C(=O)NCC(=O)N[C@@H](CO)C(=O)N[C@@H](C(C)C)C(=O)N[C@@H](Cc2ccccc2)C(=O)N[C@@H](CCCCN)C(=O)NC(C)(C)C(=O)N1)C(=O)N[C@@H](CCCCN)C(=O)N[C@@H](CCC(N)=O)C(=O)N[C@@H](CCCCN)C(=O)N[C@@H](CCCCN)C(=O)N[C@@H](CCCCN)C(=O)N[C@@H](CCC(=O)O)C(=O)N[C@@H](Cc1ccccc1)C(=O)N[C@@H](CCCCN)C(N)=O` [compound 264]: 1 to 100 nM and 0.01 to 1 nM.
On to `CC[C@H](C)[C@H](NC(=O)[C@H](C)NC(=O)[C@H](CCCCN)NC(=O)[C@H](CCCNC(=N)N)NC(=O)[C@H](Cc1ccccc1)NC(=O)[C@H](CCC(N)=O)NC(=O)[C@@H]1CSSC[C@H](N)C(=O)N[C@@H](CC(=O)O)C(=O)N[C@@H](C)C(=O)N[C@@H]([C@@H](C)O)C(=O)N1)C(=O)N[C@@H](CC(=O)O)C(=O)N[C@@H](CCC(=O)O)C(=O)N[C@H]1CSSC[C@@H](C(=O)N[C@@H](CCSC)C(=O)N[C@@H](CCCCN)C(=O)N[C@@H](CCC(N)=O)C(=O)N[C@@H](CCCCN)C(=O)N[C@@H](CCCCN)C(=O)N[C@@H](CCCCN)C(=O)N[C@@H](CCC(=O)O)C(=O)N[C@@H](Cc2ccccc2)C(=O)N[C@@H](CCCCN)C(=O)N[C@@H](C)C(=O)NCC(N)=O)NC(=O)C(C)(C)NC(=O)[C@H](CCCCN)NC(=O)[C@H](Cc2ccccc2)NC(=O)[C@H](C(C)C)NC(=O)[C@H](CO)NC(=O)CNC(=O)[C@@H]2CCCN2C(=O)[C@H](C(C)C)NC(=O)[C@H](CC(N)=O)NC(=O)[C@H](CO)NC(=O)[C@H](Cc2c[nH]cn2)NC(=O)[C@H](Cc2c[nH]cn2)NC(=O)[C@H](C)NC(=O)[C@H](CCC(N)=O)NC(=O)[C@H](CCCCN)NC(=O)[C@H](CCC(N)=O)NC1=O` [compound 215], for which the IC50 at human PAC1 receptor lay in the range of 1 to 100 nM; against rat PAC1 receptor, 0.01 to 1 nM.
As to `CCCC[C@H](NC(=O)[C@@H]1CSSC[C@H](NC(=O)[C@H](CC(=O)O)NC(=O)[C@H](CC(=O)O)NC(=O)[C@@H](NC(=O)[C@H](C)NC(=O)[C@H](CCCCN)NC(=O)[C@H](CCCNC(=N)N)NC(=O)[C@H](Cc2ccccc2)NC(=O)[C@H](CCC(N)=O)NC(=O)[C@@H]2CSSC[C@H](N)C(=O)N[C@@H](CC(=O)O)C(=O)N[C@@H](C)C(=O)N[C@@H]([C@@H](C)O)C(=O)N2)[C@@H](C)CC)C(=O)N[C@@H](CC(=O)O)C(=O)N[C@@H](CCCCN)C(=O)N[C@@H](CCC(N)=O)C(=O)N[C@@H](C)C(=O)N[C@@H](Cc2c[nH]cn2)C(=O)N[C@@H](Cc2c[nH]cn2)C(=O)N[C@@H](CO)C(=O)N[C@@H](CC(N)=O)C(=O)N[C@@H](C(C)C)C(=O)N2CCC[C@H]2C(=O)NCC(=O)N[C@@H](CO)C(=O)N[C@@H](Cc2ccccc2)C(=O)N[C@@H](CCCCN)C(=O)NC(C)(C)C(=O)N1)C(=O)N[C@@H](CCCCN)C(=O)N[C@@H](CCC(N)=O)C(=O)N[C@@H](CCCCN)C(=O)N[C@@H](CCCCN)C(=O)N[C@@H](CCCCN)C(=O)N[C@@H](CCC(=O)O)C(=O)N[C@@H](Cc1ccccc1)C(=O)N[C@@H](CCCCN)C(N)=O` [compound 257], the half-maximal inhibitory concentration (IC50) is 1 to 100 nM against human PAC1 receptor and 0.01 to 1 nM against rat PAC1 receptor.

For orientation: IC50 means the concentration needed to halve the response being measured. A low value points to higher potency.
